One substance from patent publication US20090170945A1, “PREGABALIN SALTS” (priority 2007, published 2009) can be followed below.

The data set can be described thus: Hygroscopicity of solid state salts under storage at ambient and humid conditions. It is filed as physicochemical. The conditions noted are these: storage at ambient and humid (40 C, 75% RH) conditions.

As for “Pregabalin p-toluene Sulfonate [pregabalin tosylate]”, the hygroscopicity result was “non-hygroscopic”.
